Assay results as given in patent US8067603B2 (priority 2003, dated 2011).

Protein sequences, listed by entry. Tags and fused reporters are not part of them.
UniProt P41146, whole entry: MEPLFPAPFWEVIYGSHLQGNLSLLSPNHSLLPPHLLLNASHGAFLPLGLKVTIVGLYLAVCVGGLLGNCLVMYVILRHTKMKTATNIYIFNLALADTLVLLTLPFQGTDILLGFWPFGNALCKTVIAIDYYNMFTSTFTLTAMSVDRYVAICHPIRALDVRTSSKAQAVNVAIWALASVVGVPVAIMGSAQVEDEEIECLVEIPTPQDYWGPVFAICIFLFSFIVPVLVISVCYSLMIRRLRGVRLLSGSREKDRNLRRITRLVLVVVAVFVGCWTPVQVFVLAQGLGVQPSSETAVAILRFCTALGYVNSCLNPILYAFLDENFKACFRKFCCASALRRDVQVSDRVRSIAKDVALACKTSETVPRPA
UniProt P35372, whole entry: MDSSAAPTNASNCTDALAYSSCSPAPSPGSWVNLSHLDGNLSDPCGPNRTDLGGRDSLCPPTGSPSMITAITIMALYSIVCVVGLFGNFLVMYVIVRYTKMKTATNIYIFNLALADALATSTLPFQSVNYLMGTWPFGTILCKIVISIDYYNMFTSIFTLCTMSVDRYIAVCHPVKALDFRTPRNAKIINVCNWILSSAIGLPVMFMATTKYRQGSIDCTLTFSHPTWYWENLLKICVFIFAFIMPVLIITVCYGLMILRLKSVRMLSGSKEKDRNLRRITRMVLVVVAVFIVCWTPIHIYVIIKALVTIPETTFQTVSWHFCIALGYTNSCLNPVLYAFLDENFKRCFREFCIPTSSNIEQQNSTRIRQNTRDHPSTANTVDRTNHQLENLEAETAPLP

Key:
human ORL1 receptor = human ORL1 receptor (Homo sapiens, UniProt P41146); assay: Affinity for human ORL1 receptors, [3H]-nociceptin binding, CHO-cell membranes; details: membranes of CHO-cells expressing human ORL1
Procedure: Affinity of the compounds for human ORL1 receptors was determined using the in vitro receptor binding assay described by Ardati et al., Mol. Pharmacol., 51, 816, 1997. Briefly, membrane preparations were obtained from CHO-cells in which the human ORL1 receptor was stably expressed. Membranes were incubated with [^3H]-nociceptin in the absence or presence of test compound in different concentrations, diluted in a suitable buffer. Non specific binding was defined as binding remaining in the presence of 10^−6 M nociceptin. Separation of bound radioactivity from free was done by filtration through Packard GF/B glass fiber filters with several washings with ice-cold buffer using a Packard cell harvester. Bound radioactivity was measured with a scintillation counter (Topcount, Packard) using a liquid scintillation cocktail (Microscint 0, Packard). Measured radioactivity was plotted against the concentration of the displacing test compound and displacement curves were calculated by four-parameter logistic regression, resulting in IC50 values, i.e. that concentration of test compound by which 50% of the radioligand is displaced.

human μ-opiate receptor = human μ-opiate receptor (Homo sapiens, UniProt P35372); assay: Affinity for human μ-opiate receptors, [3H]-naloxone binding, CHO-cell membranes; details: membranes of CHO-cells expressing human μ-opiate receptor
Procedure: Affinity of the compounds for μ-opiate receptors was determined using the in vitro receptor binding assay described by Childers et al, Eur. J. Pharm 55, 11, 1979. Briefly, membrane preparations were obtained from CHO-cells in which the human μ-opiate receptor was stably expressed, and were incubated with the [^3H]-naloxone in the absence or presence of test-compounds in a concentration range from 10 μM down to 0.1 nM, diluted in a suitable buffer. Non specific binding was defined as binding remaining in the presence of 10^−7 M levallorphan tartrate.

Compound	affinity ORL1 pKi (human ORL1 receptor)	affinity μ-opi pKi (human μ-opiate receptor)
O=c1[nH]c2ccccc2n1C1CCN(C2CCC3CCCc4ccc(F)c2c43)CC1 (stereo not drawn)	8.4	7.5
Cc1ccc2c3c1CCCC3CCC2N1CCC(n2c(=O)[nH]c3ccccc32)CC1 (stereo not drawn)	9.2	8.1
O=c1[nH]c2ccccc2n1C1CCN(C2CCC3CCCc4cc(F)cc2c43)CC1 (stereo not drawn)	7.9	6.9
